Binding of CDR-mutated scFvs to a peptide of the spike HR2 region

Target: peptide PDVDLGDISGINAS, taken from heptad repeat 2 (HR2) of SARS-CoV-2 spike.

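The starting antibody came from a phage panning campaign against this peptide. Designed CDR sequences, proposed from the first random library and measured here. Several design methods are mixed in this list. AlphaSeq pools MATa yeast showing the antibodies with MATalpha yeast showing the peptide. Binding brings cells together so that they mate, and sequencing counts the barcode pairs among the diploids. Read counts were normalised to the haploid input and turned into Kd by a linear fit to BCL2-family pairs of known affinity, for each replicate. There are six technical replicates.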

Parent scFv Ab-14: VH joined to VL by a 15-residue (Gly4Ser)3 linker. Changes lie in the heavy chain CDRs alone.
VH: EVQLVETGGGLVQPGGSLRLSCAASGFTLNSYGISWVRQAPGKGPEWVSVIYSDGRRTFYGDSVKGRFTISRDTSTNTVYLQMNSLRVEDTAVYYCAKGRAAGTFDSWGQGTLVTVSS
VL: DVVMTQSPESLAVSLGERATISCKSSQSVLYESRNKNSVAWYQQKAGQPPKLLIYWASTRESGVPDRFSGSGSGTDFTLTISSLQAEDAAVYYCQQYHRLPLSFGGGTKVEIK

The parent's heavy chain CDRs are GFTLNSYGIS, VIYSDGRRTFYGDSVK, GRAAGTFDS; each variant's own CDRs replace them letter for letter.
The read-out is the apparent dissociation constant on a log10 scale (nM): the lower, the stronger.
Averages over replicates are reported, and they cover detected replicates only.
"not detected" marks a missing value. The strain was present, yet no cells mated with the target were sequenced in any replicate, which points to weak or no binding.
The range of this assay differs from that of the first round, and the authors advise against merging the two.
The authors' rule: three or more of the six replicates give a measured affinity, fewer mean a poor binder.
A sequence that the file lists under several names has all its replicates pooled.
As a blank, each scFv also met three strains without target: over all heavy chain designs, 1% of these pairings were detected, typically at 2.08 and seldom below 0.84.

| CDR-H1 | CDR-H2 | CDR-H3 | mean, log10 nM | seen in |
|---|---|---|---|---|
| GFDLNEYGIS | VIYADGRRTAYVDSVK | GNVAGTFDI | -0.39 | 6/6 |
| GNNLNSYGIS | VIYSDGRRTFYGDSVK | GSAAGTFDS | 2.29 | 2/6 |
| GFDLNEYGIS | VIYADGIRQAYEDNVK | GRNIIGFLF | not detected | 0/6 |
| GFDLNEYGIS | VIYADGKRTAYANDVK | GEVAGTFDL | -0.49 | 6/6 |
| GFDLNEYGIS | VIYADGMRTFYSDSVK | GEVAGTFDQ | -0.70 | 6/6 |
| GFELNSYGIS | VIYSDGRRTFYGDSVK | GVQAGTFDS | not detected | 0/6 |
| GFDLNSYGIS | VIYSDGHRTFYIDSVK | GRAAGTFDS | 0.66 | 6/6 |
| GFDLNEYGIS | VIYADGRRQAVVQSVK | GKNNVVDSV | not detected | 0/6 |
| GDDLENVGIS | VIYADGKRKAYAQKVK | GHTGGTFAD | not detected | 0/6 |
| GFEIQEYGIS | VIYADGRRTAYAEQVK | GTMGGTFST | 1.05 | 6/6 |
| GFDLEEYGIS | VIYADGMRTAYADSVK | GTNAGTFDV | 1.17 | 6/6 |
| GFDLDEYGIS | VIYADGSRTAYTDSVK | GEVAGTFDV | 0.11 | 6/6 |
| GFALNEYGIS | VIYADGIRQVYANKVK | GNQGGTLLI | not detected | 0/6 |
| GFQLNSYGIS | VIYADGRRTFYGDSVK | GRTAGTFDS | 0.28 | 6/6 |
| GFDLNEYGIS | VIYADGLRTAYSDSVK | GNNAGTFDV | -0.57 | 6/6 |
| GDNLEEYGIS | VIYADGKRSVYADSVK | GHISGWFDI | 2.87 | 2/6 |
| GFSLNNYGIS | VIYADGRRTFYGDSVK | GRTAGTFDS | -0.02 | 6/6 |
| GFSLNSYGIS | VIYSDGRRTFYKDSVK | GQAAGTFDT | 1.81 | 5/6 |
| GFTLNMYGIS | VIYSDGRRTFYTDSVK | GRFAGTFDS | 0.16 | 6/6 |
| GFNLEEYGIS | VIYADGVRASYAENVK | AGGNFIAIG | not detected | 0/6 |
| GFNLDEYGIS | VIYADGRRTFYSDNVK | GETAGTFDI | -0.65 | 6/6 |
| GFELNSYGIS | VIYSDGRRTFYGDSVK | GRTAGTFDA | 0.47 | 6/6 |
| GFDLNEYGIS | VIYADGRRTAYADTVK | GNVAGTFDV | not detected | 0/6 |
| KFDLNSYGIS | VIYSDGKRTFYGDSVK | GRQAGTFDS | 1.41 | 2/6 |
| GFDLNEYGIS | VIYADGSRTAYVDDVK | GNVAGTFDV | -0.71 | 6/6 |
| GFTLNSYGIS | VIYSDGRRTFYIDSFK | GRAAGTFES | not detected | 0/6 |
| GFTLNEYGIS | VIYSDGRRTFYGDSVK | GKAAGTFDS | 0.64 | 12/12 |
| GTTLNSYGIS | VIYSDGRRTFYGDSVK | RRAAGTFDS | not detected | 0/6 |
| GFDLNEYGIS | VIYADGRRTFYIDSVK | GTNAGTFDV | not detected | 0/6 |
| GFDLNEYGIS | VIYADGRRTFYTDSVK | GGNAGTFDF | -0.63 | 6/6 |
| GDTLNMYGIS | VIYSDGRRTFYGDSVK | GREAGTFDS | 0.76 | 6/6 |
| GFDLNEYGIS | VIYADGQRTAYTDSVK | GQNAGTFDV | 0.21 | 6/6 |
| GFSLDEYGIS | VIYADGRRTFYSDDVK | GNVAGTFDV | -0.17 | 6/6 |
| GFDLNEYGIS | VIYSDGRRTFYADSVK | GRTAGTFDS | -0.63 | 6/6 |
| GFDLDEYGIS | VIYADGQRTAYADDVK | GNTAGTFDV | -0.12 | 6/6 |
| GLTLNSYGIP | VIYSDGRRTAYGDSVK | GRAAGTFDS | not detected | 0/6 |
| GFDLNEYGIS | VIYADGKRTYYADSVK | GNEAGTFDV | -0.27 | 6/6 |
| GFWLNDYGIS | VIYADGRRTFYGDSVK | GEAAGTFDS | 0.13 | 6/6 |
| GFTLNSYGIS | VIYSDGIRTAYGDSVK | GRAAGTFIS | not detected | 0/6 |
| GFDLNEYGIS | VIYADGKRTAYADSVK | GNEAGTFDT | -0.62 | 6/6 |
| GFTLNEYGIS | VIYSDNRRTVYGDSVK | GRAAVTSDQ | not detected | 0/6 |
| GFDLNSYGIS | VIYADGRRTFYGDSVK | GKAAGTFDS | -0.28 | 6/6 |
| GFTLNSYGIS | VIYSDGIRTFYDDSVK | GQLAGTFDS | 0.68 | 5/6 |
| GFVLNSYGIS | VIYADGRRTFYGDSVK | GQAAGTFDS | 0.45 | 5/6 |
| GFTLNEYGIS | VIYFDGRRTSYGDDVK | GRATGTFCS | not detected | 0/6 |
| GFDLNEYGIS | VIYADGRRTQYIDSVK | GNEAGTFDQ | -0.18 | 6/6 |
| GFDLNSYGIS | VIYSDGRRTFYGDSVK | GQAAGTFDV | 0.32 | 6/6 |
| GFSLNEYGIS | VIYSDGRRTFYGDRVK | GRTAGTFDS | 1.00 | 6/6 |
| GFTLNEYGIS | VIYSDGRRTFMGDSVK | GRAAGTFDH | 1.60 | 5/6 |
| GFDLNEYGIS | VIYADGRRTFYADSVK | GELAGTFDS | 0.89 | 5/6 |
| GMDLEEYGIS | VIYADGLRSAYVDAVK | GGVGDVDFV | not detected | 0/6 |
| GFDLNEYGIS | VIYADGSRTFYSDSVK | GQNAGTFDV | -0.27 | 6/6 |
| GFEIQEYGIS | VIYADGRRTAYAESVK | GTLGGTFLT | 0.44 | 4/6 |
| GFTLESYGIS | VIYSDGRRTFYADSVK | GREAGTFDS | 0.23 | 6/6 |
| GFILNSYGIS | VIYSDGRRTFYDDSVK | GQLAGTFDS | 1.18 | 4/6 |
| GFDLNEYGIS | VIYADGVRTFYADSVK | GTAAGTFDQ | 0.26 | 6/6 |
| GFELDEYGIS | VIYADGARTGYVDNVK | GEAGGDFHV | 2.41 | 1/6 |
| GFTLNSYGIS | VIYADGRRTFYGDSVK | GRAAGTFCK | not detected | 0/6 |
| GFNLNSYGIS | VIYSDGRRTFYGDQVK | GRTAGTFDS | not detected | 0/6 |
| GFDLNEYGIS | VIYADGKRTAYADDVK | GNQAGTFDI | 0.02 | 6/6 |
| GFNLDEYGIS | VIYADGMRTAYADSVK | GETAGTFDI | -0.09 | 6/6 |
| GFTLNSYGIS | VIYSDGRRTFYADSVK | GKAAGTFDV | 0.38 | 6/6 |
| GFDLNSYGIS | VIYSDGRRTFYQDDVK | GRTAGTFDS | 0.16 | 6/6 |
| GFTLDSYGIS | VIYSDGRRTFYIDSVK | GRAAGTFIS | not detected | 0/6 |
| GFDLNEYGIS | VIYADGRRTAYQDSVK | GEVAGTFDS | -0.55 | 6/6 |
| GFALNEYGIS | VIYSDGRRTFYGDSVK | GQAAGTFDL | 1.22 | 4/6 |
| GFTLNSYGIS | VIYSDGRRTFYGDSVK | AQKAGTFDS | 0.12 | 4/6 |
| SFDLNSYGIS | VIYSDGRRTFYQDSVK | GRTAGTFDS | 0.60 | 6/6 |
| GFTNNSYGIS | VMYSDGRRTFYGDSVK | GRAAGTFDS | 1.87 | 2/6 |
| GFNLNEYGIS | VIYADGVRTFYADSVK | GEAAGTFDS | 0.22 | 6/6 |
| GFDLNEYGIS | VIYADGTRTYYANSFK | GDYKVKNSI | not detected | 0/6 |
| QFTLNEYGIS | VIYSDGRRTFYGDSVK | GRAAGTFDS | 1.63 | 3/6 |

From the list, the first 4 with no signal in any replicate:

{"CDR-H1": "GFDLNEYGIS", "CDR-H2": "VIYADGIRQAYEDNVK", "CDR-H3": "GRNIIGFLF", "mean, log10 nM": "not detected", "seen in": "0/6"}
{"CDR-H1": "GFELNSYGIS", "CDR-H2": "VIYSDGRRTFYGDSVK", "CDR-H3": "GVQAGTFDS", "mean, log10 nM": "not detected", "seen in": "0/6"}
{"CDR-H1": "GFDLNEYGIS", "CDR-H2": "VIYADGRRQAVVQSVK", "CDR-H3": "GKNNVVDSV", "mean, log10 nM": "not detected", "seen in": "0/6"}
{"CDR-H1": "GDDLENVGIS", "CDR-H2": "VIYADGKRKAYAQKVK", "CDR-H3": "GHTGGTFAD", "mean, log10 nM": "not detected", "seen in": "0/6"}

From the AlphaSeq antibody data of Li et al. 2023 (doi:10.1038/s41467-023-39022-2), copy in the FLAb collection.